The values that follow come from PubChem BioAssay AID652154 (Broad Institute, 2013).

The entries are a selection whose mix differs from that of the whole data set. Calls of active or inactive are those of the source.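 Rule for the calls: active = mean replicate inhibition at least 60% with every replicate also reaching 60%; inconclusive = only one of the two criteria is met; inactive = mean below 60% and not all replicates reaching 60%.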

This assay is described as follows: inhibitors of PAX8-driven TPO luciferase reporter, primary screen, RMG-I cells, single concentration (AID 652154).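 Note: luciferase light reporting Pax8 driven TPO promoter activity; plate controls were median of neutral control wells for no effect and mitoxantrone controls for full effect.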 The settings on record: SteadyGlo, 24 h, at 12.6 µM, active compounds read high. Background: In a reporter assay the amount or activity of a reporter protein is the signal.
As for `C[As](=O)(O)c1cccc(C(=O)O)c1`, the inhibition was inactive: -10.1%.
The value for `COc1cc(C(=O)NCC2(N3CCOCC3)CCCCC2)ccc1OCC(C)C` was inactive: 10.1%.
With `O=[N+]([O-])c1ccc(-c2cc([N+](=O)[O-])c(O)c([N+](=O)[O-])c2)cc1`, the inhibition is inactive: -24%.
Consider `[N-]=[N+]=NC1CCCCC1NC(=O)c1cc([N+](=O)[O-])cc([N+](=O)[O-])c1` (stereo not drawn), for which the inhibition is inactive: -5.95%.
Consider `Cc1ccc(OP(=O)(Nc2ccc([N+](=O)[O-])cn2)Oc2ccc(C)cc2)cc1`, for which the inhibition was inactive: -26.1%.
`Cc1ccc2nc3c(c(C)c2c1)CC(C(Cl)Cl)S3` (stereo not drawn): the inhibition is inactive: -35.1%.
For `NC(=O)Nc1ccc([As](=O)(O)O)cc1`, the inhibition was inactive: -1.35%.
Next, `N#CCCN(C(=O)COC(=O)C(O)(c1ccccc1)c1ccccc1)c1ccc(F)cc1`: inactive: 8.08%; `CN(C(=O)Cc1ccccc1)[C@@H]1CC[C@]2(CCCO2)C[C@H]1N1CCCC1`: inactive: 11.5%; `CN(C)C(=O)c1cc([N+](=O)[O-])cc2c1-c1c(cc([N+](=O)[O-])cc1[N+](=O)[O-])C2=O`: inactive: 56.8%.
For the compound `CN(C(=O)Cc1ccc(Cl)c(Cl)c1)[C@H]1CC[C@@]2(CCCO2)C[C@@H]1N1CCCC1`, the inhibition was inactive: -12.9%.
As to `O=P(Nc1nccs1)(Oc1ccccc1)Oc1ccccc1`, the inhibition is inactive: -6.73%.
The value for `Nc1ccccc1[As](=O)(O)c1ccccc1` was inactive: 1.35%; that for `O=C(O)COc1ccc([As](=O)(O)O)cc1[N+](=O)[O-]` was inactive: 11.1%; that for `Nc1cccc2c([As](=O)(O)O)cccc12` was inactive: -1.99%.
For `Cc1ccc(NCCc2c([N+](=O)[O-])cc([N+](=O)[O-])cc2[N+](=O)[O-])cc1`, the inhibition is inactive: -12%.
The value for `CCCOP(=S)(Nc1nc(N)cc(=O)[nH]1)OCCC` was inactive: 12.4%; that for `CCOP(=O)(Nc1cccc2ccccc12)OCC` was inactive: 18.6%.
`O=C(OC1CN2CCC1CC2)c1ccc(Cl)cc1` (stereo not drawn): the inhibition is inactive: -1.92%.
Next, `COc1cc(C(=O)NCC2(N3CCOCC3)CCCCC2)cc(Cl)c1OC(C)C`: inactive: 27.8%; `O=[As](O)(O)c1cccnc1`: inactive: 9.67%.
Next, `CS(=O)(=O)c1ccc(Cl)c(NC(=O)COC(=O)C(O)(c2ccccc2)c2ccccc2)c1`: inactive: 12.6%; `O=[As](O)(c1cccc(O)c1)c1cccc(O)c1`: inactive: 3.74%; `COc1ccccc1CNC(=O)COC(=O)C(O)(c1ccccc1)c1ccccc1`: inactive: 2.8%.
The value for `CC(C)/C=N\N=C(\N)N[N+](=O)[O-]` was inactive: -20.2%; that for `CN(C(=O)Cc1ccc(Cl)c(Cl)c1)[C@@H]1CCCC[C@H]1N1CCCC1` was inactive: -3.35%.
In the case of `O=P1(Nc2ccccn2)COc2ccccc2OC1`, the inhibition was inactive: 12.8%.
For the compound `CCC1=CC2Cc3nc4ccc(Cl)cc4c(N)c3C(C1)C2` (stereo not drawn), the inhibition is inactive: 44.5%.
The value for `CCOP(=O)(NC(=NC(C)c1ccccc1)NC(C)c1ccccc1)OCC` (stereo not drawn) was inactive: -20.1%.
Next, `CN(CCCl)Cc1cc(Cl)c(NC2=NCCN2)c(Cl)c1`: inactive: -9.72%; `CCOP(=O)(Nc1ccc(C)cn1)OCC`: inactive: 4.42%.
Turning to `O=P1(N(CCCl)CCCl)NCCC(C(F)(F)F)O1` (stereo not drawn), the inhibition was inactive: -7.48%.
For the compound `CC(C)(C)C(=O)NC(Sc1ncccn1)C(Cl)(Cl)Cl` (stereo not drawn), the inhibition was inactive: 0.09%.
Consider `Cc1ccc(S(=O)(=O)N(CCCN)CCCc2c(C)nc(N)[nH]c2=O)cc1`, for which the inhibition is inactive: -3.62%.
In the case of `O=P1(Nc2ncccn2)COc2ccccc2OC1`, the inhibition was inactive: 7.3%.
`Nc1cccc([As](=O)(O)c2ccccc2)c1`: the inhibition was inactive: -9.83%.
Next, `NS(=O)(=O)c1cccc(NC(=O)COC(=O)C(O)(c2ccccc2)c2ccccc2)c1`: inactive: -0.608%.
The value for `O=[As](O)(c1cccs1)c1cccs1` was inactive: -20%; that for `CC1CCC(C(C)C)C(OP(=O)(Nc2ccccn2)c2ccccc2)C1` (stereo not drawn) was inactive: 22.2%.
Turning to `Cc1ccc(C(=O)OC2CN3CCC2CC3)cc1` (stereo not drawn), the inhibition is inactive: 2.67%.
The value for `CN(C)C1(CNC(=O)c2ccc(S(C)(=O)=O)cc2)CCCCC1` was inactive: -3.75%.
Next, `O=C(/C=C/c1ccccc1)OC1CN2CCC1CC2` (stereo not drawn): inactive: -18.4%; `CCCC1OP(=O)(Nc2ccccc2)OCC1CC` (stereo not drawn): inactive: 8.34%.

The term inhibition denotes the change of the read-out against control, counted positive when it falls.
